Test results from PMC5306265, “A phase I dose-escalation study of TAK-733, an investigational oral MEK inhibitor, in patients with advanced solid tumors” (Investigational New Drugs, 2016).

Settings: once daily on days 1–21 in 28-day treatment cycles

## Cn1c(=O)c(F)c(Nc2ccc(I)cc2F)c2c(=O)n(C[C@@H](O)CO)cnc21 [TAK-733]
  maximum tolerated dose (MTD): 16 mg
